Experiments:
EGFR (human) [1] = target: EGFR (human) (UniProt P00533)
EGFR (human) [2] = target: EGFR (human) (UniProt P00533); settings: hn5

Amino acid sequences for entries named in this document (tags omitted).
UniProt P00533, whole entry, looked up: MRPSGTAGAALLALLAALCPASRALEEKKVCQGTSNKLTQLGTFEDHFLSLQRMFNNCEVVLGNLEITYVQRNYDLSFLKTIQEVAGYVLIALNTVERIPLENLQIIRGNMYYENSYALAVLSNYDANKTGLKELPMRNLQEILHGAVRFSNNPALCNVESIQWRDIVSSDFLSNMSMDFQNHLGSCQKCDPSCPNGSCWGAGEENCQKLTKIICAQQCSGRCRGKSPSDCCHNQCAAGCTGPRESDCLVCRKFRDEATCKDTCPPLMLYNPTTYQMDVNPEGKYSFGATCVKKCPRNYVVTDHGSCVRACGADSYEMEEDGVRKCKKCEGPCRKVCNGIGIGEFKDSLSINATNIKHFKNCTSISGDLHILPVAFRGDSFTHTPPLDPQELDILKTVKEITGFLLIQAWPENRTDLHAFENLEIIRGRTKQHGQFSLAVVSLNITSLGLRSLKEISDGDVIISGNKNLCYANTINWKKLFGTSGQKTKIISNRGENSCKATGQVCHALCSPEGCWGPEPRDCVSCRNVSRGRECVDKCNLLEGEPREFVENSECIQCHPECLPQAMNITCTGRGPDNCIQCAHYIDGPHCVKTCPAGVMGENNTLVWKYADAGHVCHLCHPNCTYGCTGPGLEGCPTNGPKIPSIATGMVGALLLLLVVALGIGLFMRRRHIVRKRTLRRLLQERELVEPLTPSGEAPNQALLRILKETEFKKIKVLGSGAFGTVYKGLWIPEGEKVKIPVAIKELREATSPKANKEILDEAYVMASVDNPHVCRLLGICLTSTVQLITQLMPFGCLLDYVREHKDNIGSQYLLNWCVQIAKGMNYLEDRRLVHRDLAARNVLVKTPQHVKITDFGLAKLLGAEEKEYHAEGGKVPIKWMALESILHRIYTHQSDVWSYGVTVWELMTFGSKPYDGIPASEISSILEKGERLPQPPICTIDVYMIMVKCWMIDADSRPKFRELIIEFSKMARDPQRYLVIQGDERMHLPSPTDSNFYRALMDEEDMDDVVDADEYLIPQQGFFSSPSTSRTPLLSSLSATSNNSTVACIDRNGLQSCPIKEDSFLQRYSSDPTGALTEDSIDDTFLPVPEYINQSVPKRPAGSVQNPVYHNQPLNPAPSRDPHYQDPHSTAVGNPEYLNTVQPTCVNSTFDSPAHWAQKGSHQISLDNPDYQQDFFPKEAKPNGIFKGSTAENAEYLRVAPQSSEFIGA

CS(=O)(=O)CCNCCCCOc1ccc2ncnc(Nc3ccc4c(cnn4Cc4cccc(F)c4)c3)c2c1
IC50 (EGFR (human) [1]): 22 nM
IC50 (EGFR (human) [2]): 640 nM

Source: the Kinase Knowledgebase extract (Sharma et al. 2016)
